This test addresses CHK1 (Homo sapiens (Human), UniProt O14757). Put plainly: Inhibitor potency vs. CHK1 (Assay 1A DELFIA or Assay 1B Caliper format). Type of test: biochemical. The method, then:
Assay 1A: Determination of Inhibitor Potency vs. CHK1 in DELFIA Assay Format
CHK1 kinase function was measured in a DELFIA® assay in order to monitor phosphorylation of a CDC25C peptide using a specific phospho antibody. […] The reaction mixture was incubated for 30 minutes at room temperature and then stopped by the addition of buffer (125 μL) containing 40 mM EDTA, 0.05% Tween 20, 0.1% BSA in TBS (10× concentrate, Sigma). An aliquot (100 μL) of the stopped reaction mixture was transferred to a black neutravidin-coated plate (Perbio) and incubated for 1 hour on a shaker (Titertek, Flow Laboratories) at room temperature. […] The plates were washed a further four times with wash buffer before the addition of enhancement solution (100 μL/well, PerkinElmer Life Sciences).
Assay 1B: Determination of Inhibitor Potency Vs. CHK1 in Caliper Assay Format
CHK1 kinase activity was measured in a microfluidic assay that monitors the separation of a phosphorylated product from its substrate. […] For each test compound a 50 μM stock concentration in 100% DMSO was used. […] The plate was sealed and centrifuged (1 minutes, 1000 rpm) before incubation for one hour at room temperature. The reaction was stopped by the addition of separation buffer (90 μL). […] IC50 values were calculated in GraphPad Prism5 using a non linear regression fit of the log (inhibitor) vs. response with variable slope equation.

Amino acid sequences for entries named in this document (tags omitted). A change or cut given only in a name is not applied to a line headed by its entry.
UniProt O14757: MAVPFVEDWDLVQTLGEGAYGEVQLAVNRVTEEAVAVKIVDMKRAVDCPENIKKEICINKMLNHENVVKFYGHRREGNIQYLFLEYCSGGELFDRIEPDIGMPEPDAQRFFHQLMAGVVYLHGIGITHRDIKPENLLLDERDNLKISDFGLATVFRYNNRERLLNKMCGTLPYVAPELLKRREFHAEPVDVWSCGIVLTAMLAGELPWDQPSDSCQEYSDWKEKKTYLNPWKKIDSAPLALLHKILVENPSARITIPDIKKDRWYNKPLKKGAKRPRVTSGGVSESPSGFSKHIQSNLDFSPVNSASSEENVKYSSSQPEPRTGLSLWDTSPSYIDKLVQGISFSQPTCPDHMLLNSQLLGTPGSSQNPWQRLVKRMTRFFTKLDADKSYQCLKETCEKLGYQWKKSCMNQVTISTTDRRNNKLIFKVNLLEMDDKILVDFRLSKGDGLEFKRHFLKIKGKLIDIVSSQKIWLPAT

This passage reports IC50 results from patent US9403797B2, “5-(pyridin-2-yl-amino)-pyrazine-2-carbonitrile compounds and their therapeutic use” (Cancer Research Technology Limited, priority 2011, dated 2016).

Structures are written as SMILES.

As to `CNc1cc(Nc2cnc(C#N)c(O[C@H]3CCNC3)n2)ncc1-c1cnn(C)c1` [PAPC-B-04, (S)-5-((5-(1-Methyl-1H-pyrazol-4-yl)-4-(methylamino)pyridin-2-yl)amino)-3-(pyrrolidin-3-yloxy)pyrazine-2-carbonitrile], the concentration for half-maximal inhibition (IC50) was < 20 nM.

Take `CNc1cc(Nc2cnc(C#N)c(O[C@@H]3CCNC3)n2)ncc1-c1cnn(C)c1` [PAPC-B-03, (R)-5-((5-(1-Methyl-1H-pyrazol-4-yl)-4-(methylamino)pyridin-2-yl)amino)-3-(pyrrolidin-3-yloxy)pyrazine-2-carbonitrile]: the IC50 was < 20 nM.

In general, IC50 refers to the midpoint of a concentration-inhibition curve. A high value points to lower potency.
